Chains of the proteins cited; added tags and fusions are not shown. Residues count along the entry.
UniProt P00489, 2-843 limits assumed: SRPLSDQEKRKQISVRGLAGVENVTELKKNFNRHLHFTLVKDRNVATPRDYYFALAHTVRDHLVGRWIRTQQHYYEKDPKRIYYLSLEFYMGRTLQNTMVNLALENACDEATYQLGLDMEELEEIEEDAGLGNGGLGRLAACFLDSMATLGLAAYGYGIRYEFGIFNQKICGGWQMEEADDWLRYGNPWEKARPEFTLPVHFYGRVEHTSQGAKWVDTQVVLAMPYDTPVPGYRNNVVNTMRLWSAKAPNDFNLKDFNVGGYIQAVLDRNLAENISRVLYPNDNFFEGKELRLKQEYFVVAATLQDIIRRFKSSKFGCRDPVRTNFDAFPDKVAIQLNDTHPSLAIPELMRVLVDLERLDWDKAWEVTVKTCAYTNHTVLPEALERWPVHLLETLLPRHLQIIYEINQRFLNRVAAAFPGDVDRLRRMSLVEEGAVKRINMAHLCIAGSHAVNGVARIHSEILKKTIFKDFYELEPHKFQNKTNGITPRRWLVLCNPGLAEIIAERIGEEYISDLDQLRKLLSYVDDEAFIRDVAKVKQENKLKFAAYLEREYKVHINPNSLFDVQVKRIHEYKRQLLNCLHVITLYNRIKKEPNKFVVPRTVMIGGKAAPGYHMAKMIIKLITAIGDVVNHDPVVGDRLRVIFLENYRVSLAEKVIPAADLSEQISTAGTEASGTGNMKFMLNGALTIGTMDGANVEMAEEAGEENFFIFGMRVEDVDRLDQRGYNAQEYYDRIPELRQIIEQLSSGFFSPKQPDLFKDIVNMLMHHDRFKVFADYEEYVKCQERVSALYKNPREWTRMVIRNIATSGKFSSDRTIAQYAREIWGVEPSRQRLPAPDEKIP

In patent publication US20050148586A1 (priority 2004, published 2005):

Biological target: glycogen phosphorylase (from rabbit muscle, Sigma P1261) (Oryctolagus cuniculus, UniProt P00489)
Assay: Enzyme Inhibition Assay (malachite green phosphate readout)
Format: biochemical

Structure (SMILES): Cn1c(=O)c(Nc2ccc(-c3ccoc3)cc2)nc2ccccc21
- IC50 (+/−.05): 5 µM
- % inhibition (@ 20 μM test compound, percent inhibition (±10%) of enzymatic activity): 40% @ 20 μM
